Reference: article PMC4896931, “The discovery of 2-substituted phenol quinazolines as potent RET kinase inhibitors with improved KDR selectivity” (European Journal of Medicinal Chemistry, 2016)
Counter-ions that a name gives are not always drawn.

The chains behind the UniProt entries cited, without tags or fusion partners. Residues count along the entry.
UniProt P07949, 29-1114: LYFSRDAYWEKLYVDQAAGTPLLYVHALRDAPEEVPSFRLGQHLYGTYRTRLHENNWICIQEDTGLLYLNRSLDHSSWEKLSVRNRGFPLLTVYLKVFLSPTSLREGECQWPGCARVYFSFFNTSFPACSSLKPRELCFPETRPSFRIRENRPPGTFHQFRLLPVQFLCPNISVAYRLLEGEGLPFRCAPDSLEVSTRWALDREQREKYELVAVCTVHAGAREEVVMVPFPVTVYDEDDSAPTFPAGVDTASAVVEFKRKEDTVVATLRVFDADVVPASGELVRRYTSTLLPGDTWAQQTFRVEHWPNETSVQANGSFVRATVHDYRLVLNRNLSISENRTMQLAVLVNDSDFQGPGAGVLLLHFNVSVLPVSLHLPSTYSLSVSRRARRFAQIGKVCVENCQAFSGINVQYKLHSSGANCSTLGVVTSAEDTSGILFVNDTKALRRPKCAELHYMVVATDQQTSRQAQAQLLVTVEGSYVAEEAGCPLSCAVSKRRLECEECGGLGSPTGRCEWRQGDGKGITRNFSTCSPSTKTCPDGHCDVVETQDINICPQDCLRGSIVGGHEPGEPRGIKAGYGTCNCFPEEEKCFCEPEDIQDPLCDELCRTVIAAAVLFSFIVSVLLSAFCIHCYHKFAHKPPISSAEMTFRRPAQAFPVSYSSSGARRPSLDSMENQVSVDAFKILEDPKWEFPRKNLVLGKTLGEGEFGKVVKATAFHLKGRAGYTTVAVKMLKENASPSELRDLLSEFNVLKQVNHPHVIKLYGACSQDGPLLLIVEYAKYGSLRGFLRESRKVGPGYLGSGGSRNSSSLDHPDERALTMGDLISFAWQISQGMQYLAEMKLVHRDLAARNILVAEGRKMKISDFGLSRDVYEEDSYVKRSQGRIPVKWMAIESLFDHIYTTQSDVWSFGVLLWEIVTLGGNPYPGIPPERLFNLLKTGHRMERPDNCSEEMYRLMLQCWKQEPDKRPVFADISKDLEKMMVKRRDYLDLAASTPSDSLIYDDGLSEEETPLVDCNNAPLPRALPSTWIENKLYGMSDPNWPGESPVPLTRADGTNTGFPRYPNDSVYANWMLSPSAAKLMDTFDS
UniProt P35968, 20-1356: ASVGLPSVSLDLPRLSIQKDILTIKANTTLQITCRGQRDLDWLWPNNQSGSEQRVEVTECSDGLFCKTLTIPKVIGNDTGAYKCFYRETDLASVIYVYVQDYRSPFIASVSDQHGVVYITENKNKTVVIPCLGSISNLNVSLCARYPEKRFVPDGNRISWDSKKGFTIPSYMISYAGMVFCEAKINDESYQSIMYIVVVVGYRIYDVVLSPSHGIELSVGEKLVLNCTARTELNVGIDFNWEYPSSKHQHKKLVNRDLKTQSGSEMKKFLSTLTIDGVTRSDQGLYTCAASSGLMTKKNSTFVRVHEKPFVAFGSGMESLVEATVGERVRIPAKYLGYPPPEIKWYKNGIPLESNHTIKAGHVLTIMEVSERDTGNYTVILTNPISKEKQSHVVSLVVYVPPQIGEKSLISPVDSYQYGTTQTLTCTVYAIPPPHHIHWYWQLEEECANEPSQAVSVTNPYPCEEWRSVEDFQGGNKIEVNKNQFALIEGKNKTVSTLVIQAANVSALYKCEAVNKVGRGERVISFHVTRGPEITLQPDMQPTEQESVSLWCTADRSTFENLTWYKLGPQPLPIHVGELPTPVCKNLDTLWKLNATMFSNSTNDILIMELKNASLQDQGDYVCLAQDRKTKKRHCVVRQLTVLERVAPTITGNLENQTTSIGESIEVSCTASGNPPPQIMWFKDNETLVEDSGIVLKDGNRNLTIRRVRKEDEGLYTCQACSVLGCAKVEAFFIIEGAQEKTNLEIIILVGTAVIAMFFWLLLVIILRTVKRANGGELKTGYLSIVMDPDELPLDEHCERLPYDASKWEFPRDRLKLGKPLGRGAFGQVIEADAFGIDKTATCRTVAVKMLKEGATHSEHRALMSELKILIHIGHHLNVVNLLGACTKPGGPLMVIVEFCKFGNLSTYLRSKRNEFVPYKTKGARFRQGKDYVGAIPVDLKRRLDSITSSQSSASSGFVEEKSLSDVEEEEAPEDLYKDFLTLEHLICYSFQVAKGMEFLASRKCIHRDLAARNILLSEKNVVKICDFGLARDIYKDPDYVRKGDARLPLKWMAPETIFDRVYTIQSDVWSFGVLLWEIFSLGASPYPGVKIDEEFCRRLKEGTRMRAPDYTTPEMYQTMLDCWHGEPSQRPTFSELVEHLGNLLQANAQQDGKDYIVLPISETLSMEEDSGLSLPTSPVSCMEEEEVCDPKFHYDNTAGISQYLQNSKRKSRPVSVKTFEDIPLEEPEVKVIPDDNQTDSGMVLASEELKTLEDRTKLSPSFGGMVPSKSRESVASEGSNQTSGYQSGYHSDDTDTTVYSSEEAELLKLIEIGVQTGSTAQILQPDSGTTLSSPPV

Key:
[1] = target: T1, BaF3 cells expressing KIF5B-RET (Homo sapiens, UniProt P07949+P33176); assay: BaF3 cellular assay, RET-driven line (CellTiter-Glo viability); details: read-out: RET IC50
T1 sequence (P33176+P07949 with tags, fused parts or gaps): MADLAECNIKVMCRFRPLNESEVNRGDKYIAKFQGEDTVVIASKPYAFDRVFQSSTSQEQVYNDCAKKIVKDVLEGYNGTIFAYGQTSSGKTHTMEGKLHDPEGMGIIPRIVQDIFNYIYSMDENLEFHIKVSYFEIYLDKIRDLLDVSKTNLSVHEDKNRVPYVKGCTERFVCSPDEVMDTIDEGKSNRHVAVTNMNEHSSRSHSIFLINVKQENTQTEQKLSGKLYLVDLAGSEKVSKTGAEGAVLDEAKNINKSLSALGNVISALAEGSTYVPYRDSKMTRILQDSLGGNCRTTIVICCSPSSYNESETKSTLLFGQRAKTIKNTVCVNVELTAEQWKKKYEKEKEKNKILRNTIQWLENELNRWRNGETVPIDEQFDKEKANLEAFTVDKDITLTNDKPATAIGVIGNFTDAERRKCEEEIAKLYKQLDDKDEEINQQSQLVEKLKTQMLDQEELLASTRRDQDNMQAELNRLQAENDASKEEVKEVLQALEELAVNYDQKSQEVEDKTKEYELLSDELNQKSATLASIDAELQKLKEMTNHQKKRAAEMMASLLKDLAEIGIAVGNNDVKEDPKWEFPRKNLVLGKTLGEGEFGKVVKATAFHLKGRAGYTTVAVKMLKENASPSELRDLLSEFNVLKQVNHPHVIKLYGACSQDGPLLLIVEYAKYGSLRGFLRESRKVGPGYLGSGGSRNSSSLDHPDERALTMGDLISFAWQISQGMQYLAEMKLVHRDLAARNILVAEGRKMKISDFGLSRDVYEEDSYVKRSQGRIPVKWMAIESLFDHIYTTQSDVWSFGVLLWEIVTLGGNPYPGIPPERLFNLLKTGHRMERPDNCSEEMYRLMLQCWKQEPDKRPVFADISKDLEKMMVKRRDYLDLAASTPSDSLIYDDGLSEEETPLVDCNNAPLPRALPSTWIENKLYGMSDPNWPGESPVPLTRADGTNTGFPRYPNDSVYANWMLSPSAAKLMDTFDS

RET = RET (Homo sapiens, UniProt P07949); assay: RET biochemical assay (CisBio HTRF kinEASE); details: read-out: RET IC50
KDR = KDR (Homo sapiens, UniProt P35968); assay: KDR biochemical assay (CisBio HTRF kinEASE); details: read-out: KDR IC50

COc1cc2ncnc(Nc3ccc(F)c(O)c3)c2cc1OC
IC50 [1]: 490 nM | IC50 (RET): 3.2 nM | IC50 (KDR): 72 nM

COc1cc2ncnc(N3CCc4c(O)cccc43)c2cc1OC
IC50 (KDR): 9500 nM

COc1cc2ncnc(Nc3cccc(O)c3O)c2cc1OC [Compound 10, 3-((6,7-Dimethoxyquinazolin-4-yl)amino)benzene-1,2-diol hydrochloride]
IC50 [1]: 1100 nM | IC50 (RET): 3.9 nM | IC50 (KDR): 2300 nM

COc1cc2ncnc(Nc3cccc(O)c3Br)c2cc1OC [Compound 11, 2-Bromo-3-((6,7-dimethoxyquinazolin-4-yl)amino)phenol hydrochloride]
IC50 (RET): 23 nM | IC50 (KDR): 4100 nM

COc1cc2ncnc(Nc3cccc(O)c3Cl)c2cc1OC [Compound 12, 2-Chloro-3-((6,7-dimethoxyquinazolin-4-yl)amino)phenol hydrochloride]
IC50 (RET): 19 nM | IC50 (KDR): 2500 nM

COc1cc2ncnc(Nc3cccc(O)c3C)c2cc1OC [Compound 13, 3-((6,7-Dimethoxyquinazolin-4-yl)amino)-2-methylphenol hydrochloride]
IC50 (RET): 190 nM

COc1cc2ncnc(Nc3cccc(O)c3F)c2cc1OC [Compound 14, 3-((6,7-Dimethoxyquinazolin-4-yl)amino)-2-fluorophenol]
IC50 (RET): 10 nM

COc1cc2ncnc(Nc3c(Cl)ccc(O)c3F)c2cc1OC [Compound 34, 4-Chloro-3-((6,7-dimethoxyquinazolin-4-yl)amino)-2-fluorophenol]
IC50 (RET): 4.8 nM

COc1cc2ncnc(Nc3cc(F)cc(O)c3C)c2cc1OC [Compound 35, 3-((6,7-Dimethoxyquinazolin-4-yl)amino)-5-fluoro-2-methylphenol hydrochloride]
IC50 (RET): 21 nM | IC50 (KDR): 5900 nM

COc1cc2ncnc(Nc3c(Cl)ccc(O)c3Cl)c2cc1OC [Compound 39, 2,4-Dichloro-3-((6,7-dimethoxyquinazolin-4-yl)amino)phenol]
IC50 (RET): 9.7 nM

COc1cc2ncnc(Nc3c(F)ccc(O)c3Cl)c2cc1OC [Compound 40, 2-Chloro-3-((6,7-dimethoxyquinazolin-4-yl)amino)-4-fluorophenol]
IC50 (RET): 3.9 nM

COc1cc2ncnc(N(C)c3cccc(O)c3)c2cc1OC [Compound 41, 3-((6,7-Dimethoxyquinazolin-4-yl)(methyl)amino)phenol hydrochloride]
IC50 [1]: 7200 nM | IC50 (RET): 210 nM

COc1cc2ncnc(Sc3cccc(O)c3)c2cc1OC [Compound 43, 3-((6,7-Dimethoxyquinazolin-4-yl)thio)phenol hydrochloride]
IC50 (KDR): 210 nM
